Experimental findings from patent US20050209299A1, “Inhibition of mixed lineage kinases and uses therefor” (University of Maryland, Baltimore, priority 2004, published 2005) are described below.

Sequences of proteins named here, by UniProt entry; tags and fusion partners are left off. A change or cut given only in a name is not applied to a line headed by its entry.
UniProt Q02779: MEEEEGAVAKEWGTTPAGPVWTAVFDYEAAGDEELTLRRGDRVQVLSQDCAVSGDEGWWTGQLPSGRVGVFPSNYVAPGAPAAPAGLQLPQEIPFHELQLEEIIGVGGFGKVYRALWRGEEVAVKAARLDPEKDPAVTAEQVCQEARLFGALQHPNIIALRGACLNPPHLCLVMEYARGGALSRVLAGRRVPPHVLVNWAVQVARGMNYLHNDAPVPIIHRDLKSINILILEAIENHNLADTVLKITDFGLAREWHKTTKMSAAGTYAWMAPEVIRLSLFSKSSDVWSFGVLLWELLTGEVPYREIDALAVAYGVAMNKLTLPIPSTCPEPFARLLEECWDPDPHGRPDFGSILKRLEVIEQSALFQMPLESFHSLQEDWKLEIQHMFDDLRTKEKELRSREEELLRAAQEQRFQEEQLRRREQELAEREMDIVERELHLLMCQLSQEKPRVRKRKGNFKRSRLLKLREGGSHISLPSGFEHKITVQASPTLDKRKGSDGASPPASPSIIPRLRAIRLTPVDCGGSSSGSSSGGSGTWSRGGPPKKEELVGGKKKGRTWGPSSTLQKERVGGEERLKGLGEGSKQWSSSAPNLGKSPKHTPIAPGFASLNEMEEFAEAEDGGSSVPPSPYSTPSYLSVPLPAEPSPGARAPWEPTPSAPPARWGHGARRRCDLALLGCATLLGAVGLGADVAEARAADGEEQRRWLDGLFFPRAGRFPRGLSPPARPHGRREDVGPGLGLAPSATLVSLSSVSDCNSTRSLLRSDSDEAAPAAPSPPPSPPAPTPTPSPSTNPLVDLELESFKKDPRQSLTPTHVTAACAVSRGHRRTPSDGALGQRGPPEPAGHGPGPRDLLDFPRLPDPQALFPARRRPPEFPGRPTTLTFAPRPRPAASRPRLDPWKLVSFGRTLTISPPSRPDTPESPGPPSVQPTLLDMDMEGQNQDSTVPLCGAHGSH

In one test the target is T1, MLK2 (Homo sapiens, UniProt Q02779).
T1 construct: expressed in transfected cells; host or cells: HeLa
Description: MLK2 activation of JNK1 in transfected cells (immunoblot). The format is cell-based. To be noted: GFP-MLK2 + HA-JNK1 co-expressed. Here is the method: HeLa, NIH 3T3, HEK293, A549, or MRC-5 cells were grown in a DMEM supplemented with 10% fetal bovine serum (FBS) and penicillin (100 U/ml) and streptomycin (100 μg/ml). Estrogen receptor (ER) negative breast cancer cells, SUM-159, were obtained from the University of Michigan Human Breast Cancer Cell Lines (SUM-Lines) and grown in DMEM+10% FBS. In some experiments, cells were transfected with cDNA (1 μg) for pEGFP (BD Biosciences/Clontech, Palo Alto, Calif.), hemagglutinin (HA)-tagged MLK3, kinase dead mutant MLK3 (MLK3 K144R), GFP-tagged MLK2 (kindly provided by Dr. Donna Dorow), Flag-tagged DLK, or HA-tagged JNK1 using Lipofectamine® (Invitrogen, Carlsbad, Calif.). Transfected cells were harvested 16-24 hours after transfection.
For protein analysis, cells were washed twice with cold phosphate buffered saline (PBS), lysed with 300 μl of tissue lysis buffer (TLB) (20 mM Tris-base, pH 7.4, 137 mM NaCl, 2 mM EDTA, 1% Triton X-100, 25 mM β-glycerophosphate, 2 mM sodium pyrophosphate, 10% glycerol, 1 mM sodium orthovanadate, 1 mM phenylmethysulfonyl fluoride (PMSF), and 1 mM benzamidine) and centrifuged at 20,000×g to clarify lysates. Approximately 20 μg of total protein was separated by SDS-PAGE. […] Immunoreactivity was detected by enhanced chemiluminescence (ECL; Amersham, Buckinghamshire, England).

The next test has as its system HeLa cells. Description: Mitotic index / mitotic stage assay (DAPI) in synchronized HeLa cells. The format is cell-based. To be noted: varying concentrations (75, 100, 200 nM). As for the experimental part:
In some experiments, cells were synchronized by double thymidine block as previously described (18-19). Briefly, cells were incubated for 16 hours with 2 mM thymidine in 10% FBS containing DMEM. The excess thymidine was washed off with Hanks Buffered Saline Solution (HBSS) and cells were released back into the cell cycle with complete medium. After 8 hours, cells were treated a second time with 2 mM thymidine in 10% FBS containing DMEM for another 16 hours to arrest cells at the G1/S-phase boundary. Synchronized cells were then washed with HBSS and released back into the cell cycle and harvested at various time points after G1/S release for analysis. Cell cycle analysis was done by fluorescence activated cell sorting (FACS) as described below. In some experiments, CEP-11004 was added to the synchronized cells 5 hours after release from G1/S block, which corresponded to late S-phase or early G2-phase.
Cells grown on coverslips were synchronized at the G1/S-phase boundary as described in Examples 4-5. In some cases, MLK3 was co-expressed with the pEGFP vector in order to identify transfected cells. […] GFP-positive mitotic cells in prophase, prometaphase, metaphase, anaphase, or telophase were identified, counted, and expressed as a fraction of the total cells counted to determine the mitotic index. Within each experiment, 300 to 350 cells were counted for each condition and time point.

For “3,9-bis-[(isopropylthio)methyl]-(8R*,9S*, 11S*)-(−)-9-hydroxy-9-methoxycarbonyl-8-methyl-2,3,9,10-tetrahydro-8,11-epoxy-1H,8H,11H-2,7b,11a-triazadibenzo(a,g)cycloocta(cde)trinden-1-one [CEP-11004]”, the “concentration required for significant inhibition of MLK2 activation of JNK1” value on MLK2 is “greater than 400 nM”. Moreover, in the test with HeLa cells, the “mitotic index in MLK3 transfected cells” value is listed as “reduced mitotic index” and the “mitotic index in mock transfected cells” value is listed as “higher levels of mitotic cells”.
